Target: α-amylase from Bacillus licheniformis (Bacillus licheniformis, UniProt P06278)
Assay: biochemical
Conditions: mean ± standard deviation (n = 3)
Description: The α-glucosidase and α-amylase inhibitory activities of compounds Pyz-1 and Pyz-2 were determined using the method described in our previous works[48],[49].
All other reagents and standards were of analytical reagent grade.
The α-amylase assay was performed by reacting various concentrations of compounds with α-amylase and starch solution by following the DNSA method with minor modifications (Hashim et al., 2013). The evaluated samples were dissolved in tampon phosphate with various concentrations. The sample solution (10μL) was mixed with 240μL (sodium phosphate buffer 0.02M pH6.9) containing α-amylase (240U/mL), and incubated at 37°C for 20 min. After pre-incubation, 250 µL of 1% starch solution were added to each tube and incubated for 15 min. 1ml of dinitrosalicylic acid was added to stop the reaction, then incubate the solution in a water bath at 90°C for 10 min. The mixture was diluted with 1 mL deionized water and the absorbance (Abs) was measured at 540 nm.
The IC50 values were determined by the percentage of inhibitions at different concentrations.

Sequences of proteins named here, by UniProt entry; tags and fusion partners are left off. Residues count along the entry.
UniProt P06278, 30-512: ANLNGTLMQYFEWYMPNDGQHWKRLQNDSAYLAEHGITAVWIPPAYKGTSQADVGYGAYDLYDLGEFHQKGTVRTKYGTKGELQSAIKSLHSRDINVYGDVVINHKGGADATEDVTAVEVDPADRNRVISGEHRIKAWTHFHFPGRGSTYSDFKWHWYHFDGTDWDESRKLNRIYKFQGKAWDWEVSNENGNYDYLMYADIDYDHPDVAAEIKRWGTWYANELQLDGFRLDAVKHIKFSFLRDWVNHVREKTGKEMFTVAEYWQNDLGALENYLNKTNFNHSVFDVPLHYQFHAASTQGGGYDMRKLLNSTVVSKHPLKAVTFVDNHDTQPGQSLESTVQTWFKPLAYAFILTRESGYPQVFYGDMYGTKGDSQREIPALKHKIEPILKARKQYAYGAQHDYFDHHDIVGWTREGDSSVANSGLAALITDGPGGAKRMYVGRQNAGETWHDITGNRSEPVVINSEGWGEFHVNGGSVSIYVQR

Which IC50 does the source give for `C[C@H]1O[C@H](O[C@H]2[C@H](O)[C@@H](O)[C@@H](O[C@H]3[C@H](O)[C@@H](O)C(O)O[C@@H]3CO)O[C@@H]2CO)[C@H](O)[C@@H](O)[C@@H]1N[C@H]1C=C(CO)[C@@H](O)[C@H](O)[C@H]1O` (stereo partly shown) [Acarbose, reference compound] here?
The IC50 was 115.6 ± 0.57 µM.

— PMC10789823, “Synthesis, structural characterizations, in vitro biological evaluation and computational investigations of pyrazole derivatives as potential antidiabetic and antioxidant agents” (Scientific Reports, 2024)
